Test results from the Kinase Knowledgebase extract (Sharma et al. 2016).

Molecular target: CDK2 (UniProt P24941)
Test: Enzyme Assay

SMILES: CC(C)n1cnc2c(NCc3ccc(F)cc3)nc(NCCN)nc21
- IC50: 0.17 µg/mL (≈ 0.495 µM)

In brackets after ≈: the same amount, converted by molar mass.
